PubChem BioAssay (NCI)
Where “and” joins values, the source holds several entries; their conditions need not be identical. Identical values can stand only once. The entries are a selection whose mix differs from that of the whole data set.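 The test compound was applied at a single concentration to cells in 96-well plates for 48 hours, and percent growth was recorded.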 Calls of active or inactive are those of the source. Rule for the calls: active = growth percent below 10; inactive = the rest.

What was measured:
Assay in all cases: NCI-60 one-dose screen, 48 h (100 = growth as untreated, 0 = no growth, -100 = all killed)
Conditions in all cases: 10 µM
[1] = test system: NCI-H23 lung
[2] = test system: NCI-H226 lung
[3] = test system: NCI-H322M lung
[4] = test system: HOP-62 NSCLC
[5] = test system: NCI-H460 lung
[6] = test system: HOP-92 NSCLC
[7] = test system: NCI-H522 lung
[8] = test system: A549/ATCC NSCLC
[9] = test system: 786-0 renal
[10] = test system: COLO 205 colon

## O=C1N([N+](=O)[O-])CCN1[N+](=O)[O-]
[1]
  growth: inactive: 108%
[2]
  growth: inactive: 101%
[3]
  growth: inactive: 107%
[4]
  growth: inactive: 96.8%
[5]
  growth: inactive: 103%
[6]
  growth: inactive: 84.3%
[7]
  growth: inactive: 106%
[8]
  growth: inactive: 96.3%
[9]
  growth: inactive: 103%
[10]
  growth: inactive: 98.1%

## Nc1cc([As](Cl)Cl)cc(N)c1O
[1]
  growth: inactive: 66.4%
[2]
  growth: inactive: 112%
[3]
  growth: inactive: 122%
[4]
  growth: inactive: 90.8%
[5]
  growth: inactive: 103%
[6]
  growth: inactive: 66.4%
[7]
  growth: inactive: 21.3%
[8]
  growth: inactive: 91.8%
[9]
  growth: inactive: 72.2%
[10]
  growth: inactive: 88.7%

## CC(C)N1CCN(CCOC(=O)C(O)(c2ccccc2)c2ccccc2)CC1
[1]
  growth: inactive: 100%
[2]
  growth: inactive: 97.2%
[3]
  growth: inactive: 106%
[4]
  growth: inactive: 86.2%
[5]
  growth: inactive: 110%
[6]
  growth: inactive: 95.6%
[7]
  growth: inactive: 88.5%
[8]
  growth: inactive: 77.2%
[9]
  growth: inactive: 97.1%
[10]
  growth: inactive: 97.4%

## O=[N+]([O-])c1cc([N+](=O)[O-])c(Nc2nnnn2CCO)c([N+](=O)[O-])c1
[1]
  growth: inactive: 99.3%
[2]
  growth: inactive: 126%
[3]
  growth: inactive: 119%
[4]
  growth: inactive: 115%
[5]
  growth: inactive: 105%
[6]
  growth: inactive: 105%
[7]
  growth: inactive: 90.8%
[8]
  growth: inactive: 106%
[9]
  growth: inactive: 105%
[10]
  growth: inactive: 148%

## O=[N+]([O-])c1cc([N+](=O)[O-])c(Nc2ccc(Cl)cc2)c([N+](=O)[O-])c1
[1]
  growth: inactive: 42.6%
[2]
  growth: inactive: 44%
[3]
  growth: inactive: 32.2%
[4]
  growth: inactive: 25.3%
[5]
  growth: active: 7.84%
[7]
  growth: active: -19.9%
[8]
  growth: inactive: 45.2%
[9]
  growth: inactive: 31.9%
[10]
  growth: active: -10.1%

## CCN(CC)CCS
[1]
  growth: inactive: 102%
[2]
  growth: inactive: 89.4%
[3]
  growth: inactive: 93.4%
[4]
  growth: inactive: 104%
[5]
  growth: inactive: 110%
[6]
  growth: inactive: 90.2%
[8]
  growth: inactive: 101%
[9]
  growth: inactive: 95.9%
[10]
  growth: inactive: 116%

## O=[N+]([O-])N(CCN(CC(Br)([N+](=O)[O-])[N+](=O)[O-])[N+](=O)[O-])CC(Br)([N+](=O)[O-])[N+](=O)[O-]
[1]
  growth: inactive: 99.8%
[2]
  growth: inactive: 97.2%
[3]
  growth: inactive: 95.9%
[4]
  growth: inactive: 90.8%
[5]
  growth: inactive: 106%
[6]
  growth: inactive: 113%
[7]
  growth: inactive: 96.4%
[8]
  growth: inactive: 95.8%
[9]
  growth: inactive: 97.7%
[10]
  growth: inactive: 104%

## O=C(OCCN1CCCCCCCC1)C(O)(c1ccccc1)c1ccccc1
[1]
  growth: inactive: 105%
[2]
  growth: inactive: 107%
[3]
  growth: inactive: 104%
[4]
  growth: inactive: 96.5%
[5]
  growth: inactive: 111%
[6]
  growth: inactive: 96.7%
[7]
  growth: inactive: 90.7%
[8]
  growth: inactive: 103%
[9]
  growth: inactive: 96.7%
[10]
  growth: inactive: 108%

## COC(=O)C(O)(c1ccccc1)c1ccccc1
[1]
  growth: inactive: 105%
[2]
  growth: inactive: 94.7%
[3]
  growth: inactive: 106%
[5]
  growth: inactive: 106%
[6]
  growth: inactive: 95%
[7]
  growth: inactive: 100%
[8]
  growth: inactive: 98.2%
[9]
  growth: inactive: 99.7%
[10]
  growth: inactive: 103%

## O=[N+]([O-])OCC(O[N+](=O)[O-])C(CO[N+](=O)[O-])O[N+](=O)[O-] (stereo not given)
[1]
  growth: inactive: 99.7%
[2]
  growth: inactive: 112%
[3]
  growth: inactive: 117%
[4]
  growth: inactive: 113%
[6]
  growth: inactive: 114%
[7]
  growth: inactive: 102%
[8]
  growth: inactive: 117%
[9]
  growth: inactive: 113%
[10]
  growth: inactive: 122%

## CN(C)CCS
[1]
  growth: inactive: 98.4% and inactive: 105%
[2]
  growth: inactive: 95.1% and inactive: 102%
[3]
  growth: inactive: 128% and inactive: 91.5%
[4]
  growth: inactive: 108% and inactive: 103%
[5]
  growth: inactive: 121% and inactive: 109%
[6]
  growth: inactive: 88.2% and inactive: 97.3%
[7]
  growth: inactive: 109% and inactive: 101%
[8]
  growth: inactive: 107% and inactive: 89.4%
[9]
  growth: inactive: 95.2% and inactive: 100%
[10]
  growth: inactive: 121% and inactive: 102%

## O=[N+]([O-])c1cc([N+](=O)[O-])c(Oc2ccccc2)c([N+](=O)[O-])c1
[1]
  growth: inactive: 100%
[2]
  growth: inactive: 94.4%
[3]
  growth: inactive: 98%
[4]
  growth: inactive: 102%
[5]
  growth: inactive: 111%
[7]
  growth: inactive: 95%
[8]
  growth: inactive: 103%
[9]
  growth: inactive: 106%
[10]
  growth: inactive: 106%

## CN1CCN(CCOC(=O)C(O)(c2ccccc2)c2ccccc2)CC1
[1]
  growth: inactive: 94.4%
[2]
  growth: inactive: 95.8%
[3]
  growth: inactive: 100%
[4]
  growth: inactive: 99.4%
[5]
  growth: inactive: 106%
[6]
  growth: inactive: 105%
[7]
  growth: inactive: 102%
[8]
  growth: inactive: 99.9%
[9]
  growth: inactive: 97.4%
[10]
  growth: inactive: 102%

## CN(C)Nc1c([N+](=O)[O-])cc([N+](=O)[O-])cc1[N+](=O)[O-]
[1]
  growth: inactive: 111%
[2]
  growth: inactive: 101%
[3]
  growth: inactive: 88.6%
[4]
  growth: inactive: 108%
[5]
  growth: inactive: 107%
[6]
  growth: inactive: 127%
[9]
  growth: inactive: 105%
[10]
  growth: inactive: 96.5%

## O=[N+]([O-])c1cc([N+](=O)[O-])c(O)c([N+](=O)[O-])c1.c1ccc(Cc2ccncc2)cc1
[1]
  growth: inactive: 106%
[2]
  growth: inactive: 91.7%
[3]
  growth: inactive: 110%
[5]
  growth: inactive: 103%
[6]
  growth: inactive: 79.4%
[7]
  growth: inactive: 100%
[8]
  growth: inactive: 98.6%
[9]
  growth: inactive: 104%
[10]
  growth: inactive: 102%

## O=C1C(O)=C([N+](=O)[O-])C(=O)C(O)=C1[N+](=O)[O-]
[1]
  growth: inactive: 104%
[2]
  growth: inactive: 97.4%
[3]
  growth: inactive: 97.6%
[4]
  growth: inactive: 104%
[5]
  growth: inactive: 107%
[6]
  growth: inactive: 100%
[8]
  growth: inactive: 100%
[9]
  growth: inactive: 109%
[10]
  growth: inactive: 94.1%

## COc1ccc(C(O)(C(=O)OCCN2CCCCC2)c2ccc(OC)cc2)cc1
[1]
  growth: inactive: 98%
[2]
  growth: inactive: 98.1%
[3]
  growth: inactive: 119%
[4]
  growth: inactive: 103%
[5]
  growth: inactive: 108%
[6]
  growth: inactive: 84.5%
[7]
  growth: inactive: 87%
[8]
  growth: inactive: 95.4%
[9]
  growth: inactive: 101%
[10]
  growth: inactive: 130%

## CCCCCCCOP(=O)(CC)OCCCCCCC
[1]
  growth: inactive: 103%
[2]
  growth: inactive: 91.1%
[3]
  growth: inactive: 99.5%
[4]
  growth: inactive: 98.3%
[5]
  growth: inactive: 102%
[7]
  growth: inactive: 91.3%
[8]
  growth: inactive: 101%
[9]
  growth: inactive: 100%
[10]
  growth: inactive: 103%

## Cc1ccc(Nc2c([N+](=O)[O-])cc([N+](=O)[O-])cc2[N+](=O)[O-])cc1
[1]
  growth: inactive: 91%
[2]
  growth: inactive: 84.5%
[3]
  growth: inactive: 87.8%
[5]
  growth: inactive: 91.6%
[7]
  growth: inactive: 43%
[8]
  growth: inactive: 91.8%
[9]
  growth: inactive: 106%
[10]
  growth: inactive: 75%

## CN(CCCl)CCCCCCCl
[1]
  growth: inactive: 99.4%
[2]
  growth: inactive: 94.7%
[3]
  growth: inactive: 101%
[4]
  growth: inactive: 106%
[5]
  growth: inactive: 79%
[6]
  growth: inactive: 97%
[7]
  growth: inactive: 71.5%
[8]
  growth: inactive: 76.6%
[9]
  growth: inactive: 100%
[10]
  growth: inactive: 98.4%

## CNc1ccccc1.O=[N+]([O-])c1cc([N+](=O)[O-])c(O)c([N+](=O)[O-])c1
[1]
  growth: inactive: 106%
[2]
  growth: inactive: 97%
[3]
  growth: inactive: 106%
[4]
  growth: inactive: 106%
[5]
  growth: inactive: 101%
[6]
  growth: inactive: 105%
[7]
  growth: inactive: 99.6%
[8]
  growth: inactive: 96%
[9]
  growth: inactive: 108%
[10]
  growth: inactive: 116%

## Cc1c([N+](=O)[O-])cc([N+](=O)[O-])c(Br)c1[N+](=O)[O-]
[1]
  growth: inactive: 93.8%
[2]
  growth: inactive: 97.3%
[3]
  growth: inactive: 94.8%
[4]
  growth: inactive: 102%
[5]
  growth: inactive: 99.7%
[6]
  growth: inactive: 98.8%
[7]
  growth: active: -78.9%
[8]
  growth: inactive: 97.1%
[9]
  growth: inactive: 104%
[10]
  growth: active: -76.8%

## COc1ccccc1-c1ccccn1.O=[N+]([O-])c1cc([N+](=O)[O-])c(O)c([N+](=O)[O-])c1
[1]
  growth: inactive: 110%
[2]
  growth: inactive: 92.1%
[3]
  growth: inactive: 95.3%
[4]
  growth: inactive: 108%
[5]
  growth: inactive: 108%
[8]
  growth: inactive: 102%
[9]
  growth: inactive: 101%
[10]
  growth: inactive: 117%

## CCCOP(=S)(Cl)OCCC
[1]
  growth: inactive: 106%
[2]
  growth: inactive: 110%
[3]
  growth: inactive: 100%
[4]
  growth: inactive: 111%
[5]
  growth: inactive: 104%
[6]
  growth: inactive: 80.6%
[7]
  growth: inactive: 98.8%
[8]
  growth: inactive: 102%
[9]
  growth: inactive: 101%
[10]
  growth: inactive: 116%

## NN/C(N)=N/[N+](=O)[O-]
[1]
  growth: inactive: 124%
[2]
  growth: inactive: 100%
[3]
  growth: inactive: 91.9%
[4]
  growth: inactive: 102%
[5]
  growth: inactive: 119%
[6]
  growth: inactive: 104%
[7]
  growth: inactive: 92.9%
[8]
  growth: inactive: 98.2%
[9]
  growth: inactive: 100%
[10]
  growth: inactive: 122%

## Nc1cccc(Cl)c1.O=[N+]([O-])c1cc([N+](=O)[O-])c(O)c([N+](=O)[O-])c1
[1]
  growth: inactive: 103%
[2]
  growth: inactive: 97.9%
[3]
  growth: inactive: 100%
[4]
  growth: inactive: 97.9%
[5]
  growth: inactive: 110%
[6]
  growth: inactive: 98.4%
[7]
  growth: inactive: 106%
[8]
  growth: inactive: 105%
[9]
  growth: inactive: 97.5%
[10]
  growth: inactive: 119%

## O=[N+]([O-])c1cc([N+](=O)[O-])c(NCCO)c([N+](=O)[O-])c1
[1]
  growth: inactive: 86.4%
[2]
  growth: inactive: 87.7%
[3]
  growth: inactive: 100%
[4]
  growth: inactive: 121%
[5]
  growth: inactive: 96.1%
[7]
  growth: inactive: 27.3%
[8]
  growth: inactive: 89.7%
[9]
  growth: inactive: 106%
[10]
  growth: inactive: 94.8%

## CP(=O)(OCCCCl)N(CCCl)CCCl (stereo not given)
[1]
  growth: inactive: 104%
[2]
  growth: inactive: 96%
[3]
  growth: inactive: 110%
[4]
  growth: inactive: 106%
[5]
  growth: inactive: 115%
[6]
  growth: inactive: 99.3%
[7]
  growth: inactive: 102%
[8]
  growth: inactive: 93.7%
[9]
  growth: inactive: 105%
[10]
  growth: inactive: 116%
